# Read-outs that look alike come from different tables or passages of the source.
# Assays:
# [1] = Human single ascending oral dose PK (Nix 2009)
# [2] = Reported oral uptake and elimination of nikZ; assay type: in vivo, human; conditions: frequent, small dosing
# [3] = pH 4; cited from earlier work
# [4] = test system: virulent B311 strain of Candida albicans; conditions: rat, continuous IV infusion (33 mg/kg/day) or s.c. sustained release, 96 hours; cited from earlier work
# [5] = Solubility and solution properties of nikZ; assay type: physicochemical
# [6] = cited from earlier work
# [7] = Stability of nikZ in aqueous solution (DiW); assay type: physicochemical
# [8] = rat, cited from earlier work
# [9] = cited from earlier work; for elimination half-life: humans
structure (smiles),measurement,setting,value
"C[C@@H]([C@H](N)C(=O)N[C@H](C(=O)O)[C@H]1O[C@@H](n2ccc(=O)[nH]c2=O)[C@H](O)[C@@H]1O)[C@H](O)c1ccc(O)cn1 [nikZ, nikkomycin Z]",peak blood level,"[1]; 750 mg single dose, estimated from FIG. 2B",about 4.5 μg/ml
same,AUC extrapolated if uptake and clearance remained proportional to low dose values,[1]; single dose of 2000 mg,92.8 µg·h/mL
same,oral availability,[2],more than 50%
same,degradation in water (historical studies),[3],about 1 % per day
same,survival,[4],100%
same,solubility of highest IP dose preparation,"[5]; 1000 mg/kg BID dose, about 80 g/L in water",not fully soluble
same,saturation concentration,"[5]; when chilled, about pH 3.35",about 25 g/L
same,blood drug level at 12 hours,"[6]; human, 250 mg dose",200 ng/mL
same,AUC,"[6]; single dose of 2000 mg, human",40700 ng·h/mL
same,half-life,[6]; single human dose of 250 mg,about 2.5 hours
same,degradation in solution,"[7]; 0.5-5 g/L, 25° C.",about 1 % per day
same,degradation in solution,[7]; after 4 days at 25° C.,about 4%
same,stability of solution,[7]; native nikZ HCl salt pH of about 3.35,stable for days
same,stability in aqueous solution,[7]; pH 7 and room temperature,only hours
same,degradation in solution,[7]; refrigerated,about 1 % per month
same,degradation to cleavage products NikCz and NikD by hplc,"[7]; samples as prepared for mouse dosing, 20-25° C.",about 1 % per day
same,steady state plasma concentration,[8]; continuous IV maintenance 33 mg/kg/day after loading dose,about 170 ng/ml
same,peak plasma concentration,"[8]; continuous intravenous infusion, FIG. 2A",5 µg/mL
same,early peak plasma concentration,[8]; loading dose 20 mg/kg/hr for 2 hours,about 5000 ng/ml
same,elimination half-life,[9],2.5 h
same,elimination half-life,[9]; listed as Nikkomycin Z,about 2.5 hours
same,route of elimination,[9]; in vivo,eliminated mostly by renal excretion
same,oral absorption efficiency,"[9]; many species, including human",10-15%
same,uptake from an oral dosage form,[9]; oral,15-25%
same,plasma half-life,[9]; roughly similar in mice and humans,about 2.5 hours
same,efficiency of oral uptake,[9]; single dose of 1000 mg,about 60%
same,net oral uptake,[9]; single dose of 1000 mg,7-12%

# From patent US20220168221A1 (priority 2020, published 2022)
